# Ab-14 heavy chain CDR variants: yeast mating affinities

The target is the same throughout: PDVDLGDISGINAS, from the HR2 region of SARS-CoV-2 spike.

Ab-14 is the parent antibody, in scFv form: VH, then three GGGGS repeats, then VL. The light chain is unchanged in all variants.
VH: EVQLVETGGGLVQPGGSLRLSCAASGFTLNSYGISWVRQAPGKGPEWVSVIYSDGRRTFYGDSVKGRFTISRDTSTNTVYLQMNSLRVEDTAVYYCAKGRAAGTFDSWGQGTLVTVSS
VL: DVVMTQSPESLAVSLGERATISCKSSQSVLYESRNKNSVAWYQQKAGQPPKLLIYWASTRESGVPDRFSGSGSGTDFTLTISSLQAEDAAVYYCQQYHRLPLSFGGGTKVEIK

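The starting antibody came from a phage panning campaign against this peptide. This is the validation round: designs drawn from the data on random variants, tested in the same kind of assay. Their group label is 14H_GP_Gibbs (GP: Gaussian process model; Gibbs: Gibbs sampling; a sequence that several methods proposed may carry one label only). Affinity was read by AlphaSeq, a pooled yeast mating assay with surface-displayed partners. After mating in shaken culture at 30 °C for 16 h, diploids were selected and their barcode pairs sequenced. A regression on co-assayed BCL2-family reference pairs converts the normalised counts of each replicate to an apparent Kd. Mating was done six times.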

Changes read parent residue, position, new residue, counted from the first residue of the VH shown.
Affinities are written as log10 Kd with Kd in nM; a lower number is a better binder.
Averages over replicates are reported, and they cover detected replicates only.
"nd" means that the variant was in the library but no mating with the target was seen in that replicate; the authors take this as a sign of poor binding, and no number exists.
In the paper, a design with two or fewer of six values counts as a poor binder.

| # | changes | replicates, log10 nM | mean, log10 nM | empty controls |
|---|---|---|---|---|
| 1 | T28S+G61Q+R100E+A101T | 0.14 / 0.35 / 0.20 / 0.36 / 0.20 / 0.20 | 0.24 | 1/18 (1.72) |
| 2 | T28K+G61H+R100K+A101E | 0.02 / 0.58 / 1.05 / 0.34 / 0.32 / 1.00 | 0.55 | 0/18 |
| 3 | T28G+S31D+A101Q+S107T | 0.21 / 0.24 / 0.31 / 0.29 / 0.17 / 0.35 | 0.26 | 0/18 |
| 4 | T28W+R100K+A101T+S107T | nd / nd / 0.65 / 1.86 / 1.66 / 0.75 | 1.23 | 0/18 |
| 5 | S63D+R100Q+A101E+S107T | 0.59 / 0.38 / 0.16 / 0.01 / 0.19 / 0.29 | 0.27 | 0/18 |
| 6 | T28K+R100S+A101T+S107V | 0.66 / 0.42 / 0.73 / 0.52 / 0.61 / 1.00 | 0.66 | 0/18 |
| 7 | T28D+G61T+S63N+R100K+A101T | -0.15 / 0.01 / 0.30 / 0.06 / 0.01 / -0.15 | 0.01 | 0/18 |
| 8 | G26K+T28Q+S31E+G61Q+A101T | 2.69 / nd / 1.04 / 1.36 / 1.07 / 1.15 | 1.46 | 0/18 |
| 9 | G26P+T28D+G61K+R100Q+A101T | nd / 1.22 / nd / nd / nd / 1.37 | 1.30 | 0/18 |
| 10 | T28D+S63A+A101T+S107M | 0.40 / nd / 1.23 / 0.46 / 0.80 / 1.42 | 0.86 | 0/18 |
| 11 | T28E+S31K+S63Q+A101Q | 0.52 / 0.86 / 1.10 / 0.35 / 0.42 / 0.91 | 0.69 | 0/18 |
| 12 | T28G+G61R+R100Q+A101T | 2.75 / 1.94 / 1.82 / 1.92 / 0.96 / 2.23 | 1.94 | 0/18 |
| 13 | G26K+T28E+G61K+A101T | nd / nd / nd / nd / 1.86 / 1.93 | 1.90 | 0/18 |
| 14 | T28N+S63N+A101S | nd / nd / 2.55 / 0.70 / 1.21 / nd | 1.48 | 1/18 (1.75) |
| 15 | T28W+S31E+R100K+A101T+S107L | nd / 0.83 / 0.93 / -0.02 / 0.01 / 0.56 | 0.46 | 0/18 |
| 16 | T28N+R100K+A101T+S107A | 0.88 / 0.65 / 0.95 / 0.68 / 1.03 / 1.20 | 0.90 | 2/18 (1.45) |
| 17 | T28E+S31M+G61A+R100K+A101T | 0.47 / 0.52 / -0.69 / 0.66 / -0.49 / 0.07 | 0.09 | 0/18 |
| 18 | T28N+G61A+R100K+A101T+S107C | nd / 1.35 / nd / nd / nd / nd | 1.35 | 0/18 |
| 19 | T28E+S31M+G61H+R100S | 0.31 / 0.09 / 0.23 / 0.14 / -0.11 / 0.41 | 0.18 | 0/18 |
| 20 | T28D+R56Q+A101T+S107E | nd / nd / nd / nd / 0.48 / 0.61 | 0.54 | 0/18 |
| 21 | T28E+G61V+R100K+A101Q | 1.11 / 0.80 / nd / 1.42 / 1.05 / 1.38 | 1.15 | 1/18 (1.90) |
| 22 | T28S+S31E+S63Q+A101T+D106F | nd / 1.08 / nd / nd / nd / nd | 1.08 | 0/18 |
| 23 | T28G+R100M+A101Q | 0.71 / nd / nd / nd / nd / -0.02 | 0.35 | 0/18 |
| 24 | T28D+R56K+G61A+A101L | 0.73 / 0.56 / 0.48 / 0.37 / 0.61 / 0.49 | 0.54 | 2/18 (3.49) |
| 25 | T28E+A101E+S107A | 0.40 / 0.75 / nd / 0.84 / 0.64 / 0.58 | 0.64 | 0/18 |
| 26 | N30E+S53A+S63R+A101T | 0.90 / 0.28 / 0.46 / 0.13 / 0.38 / 0.64 | 0.46 | 1/18 (1.41) |
| 27 | T28G+S31D+G61H+A101T | 0.20 / 0.15 / 0.40 / 0.17 / 0.18 / 0.13 | 0.20 | 1/18 (2.75) |
| 28 | T28D+G61C+S63R+R100Q | nd / nd / nd / nd / nd / nd | nd | 0/18 |
| 29 | T28D+G61Q+A101T+S107V | 0.40 / 0.49 / 0.42 / 0.12 / 0.06 / 0.21 | 0.28 | 1/18 (2.39) |
| 30 | T28E+G61T+R100L+A101N | 0.10 / 1.15 / -0.29 / -0.18 / 0.13 / -0.56 | 0.06 | 0/18 |
| 31 | G26W+T28S+G61A+R100W+A101T | 2.19 / 2.01 / 2.43 / nd / 2.55 / 1.63 | 2.16 | 0/18 |
| 32 | T28H+R56M+G61V+A101T | nd / nd / nd / nd / nd / nd | nd | 0/18 |
| 33 | T28D+S63Q+A101I+S107M | 0.91 / 1.15 / 0.39 / 0.12 / 0.01 / 1.27 | 0.64 | 0/18 |
| 34 | T28H+G61Q+R100Q+A101E | -1.20 / -1.02 / nd / -0.77 / -1.64 / 1.30 | -0.66 | 0/18 |

Top 2 of the variants detected in all replicates, tightest first:

{"changes": "T28D+G61T+S63N+R100K+A101T", "replicates, log10 nM": "-0.15 / 0.01 / 0.30 / 0.06 / 0.01 / -0.15", "mean, log10 nM": "0.01", "empty controls": "0/18"}
{"changes": "T28E+G61T+R100L+A101N", "replicates, log10 nM": "0.10 / 1.15 / -0.29 / -0.18 / 0.13 / -0.56", "mean, log10 nM": "0.06", "empty controls": "0/18"}

The range of this assay differs from that of the first round, and the authors advise against merging the two.
The parent sequence was in this pool as ten entries: three were never detected, three once, and four in most replicates, with averages from 0.34 to 2.37.
As a blank, each scFv also met three strains without target: over all heavy chain designs, 1% of these pairings were detected, typically at 2.08 and seldom below 0.84. Also given: how often the same scFv was detected with the empty control strains, with their mean in brackets.

From the AlphaSeq antibody data of Li et al. 2023 (doi:10.1038/s41467-023-39022-2), copy in the FLAb collection.